Assay results taken from ChEMBL document CHEMBL3124844 (J Med Chem, 2014).

By UniProt entry, the sequences of proteins in these tests, tags left out.
UniProt P31652, whole entry: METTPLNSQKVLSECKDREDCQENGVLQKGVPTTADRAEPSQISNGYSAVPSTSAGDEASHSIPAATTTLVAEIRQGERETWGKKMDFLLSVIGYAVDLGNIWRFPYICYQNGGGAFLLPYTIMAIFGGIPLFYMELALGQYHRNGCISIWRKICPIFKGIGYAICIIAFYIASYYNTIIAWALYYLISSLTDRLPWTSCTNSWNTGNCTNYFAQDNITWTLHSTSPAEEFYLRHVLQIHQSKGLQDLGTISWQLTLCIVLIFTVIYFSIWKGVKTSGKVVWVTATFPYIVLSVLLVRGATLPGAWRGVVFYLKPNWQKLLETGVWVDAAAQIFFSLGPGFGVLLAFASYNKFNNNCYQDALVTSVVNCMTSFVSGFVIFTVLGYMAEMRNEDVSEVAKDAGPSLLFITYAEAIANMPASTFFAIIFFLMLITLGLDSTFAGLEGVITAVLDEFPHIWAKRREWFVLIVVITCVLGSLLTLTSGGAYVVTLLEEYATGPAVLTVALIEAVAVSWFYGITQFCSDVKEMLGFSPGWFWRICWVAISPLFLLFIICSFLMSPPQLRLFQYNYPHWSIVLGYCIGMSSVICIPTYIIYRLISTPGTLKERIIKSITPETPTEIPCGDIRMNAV
UniProt P23977, whole entry: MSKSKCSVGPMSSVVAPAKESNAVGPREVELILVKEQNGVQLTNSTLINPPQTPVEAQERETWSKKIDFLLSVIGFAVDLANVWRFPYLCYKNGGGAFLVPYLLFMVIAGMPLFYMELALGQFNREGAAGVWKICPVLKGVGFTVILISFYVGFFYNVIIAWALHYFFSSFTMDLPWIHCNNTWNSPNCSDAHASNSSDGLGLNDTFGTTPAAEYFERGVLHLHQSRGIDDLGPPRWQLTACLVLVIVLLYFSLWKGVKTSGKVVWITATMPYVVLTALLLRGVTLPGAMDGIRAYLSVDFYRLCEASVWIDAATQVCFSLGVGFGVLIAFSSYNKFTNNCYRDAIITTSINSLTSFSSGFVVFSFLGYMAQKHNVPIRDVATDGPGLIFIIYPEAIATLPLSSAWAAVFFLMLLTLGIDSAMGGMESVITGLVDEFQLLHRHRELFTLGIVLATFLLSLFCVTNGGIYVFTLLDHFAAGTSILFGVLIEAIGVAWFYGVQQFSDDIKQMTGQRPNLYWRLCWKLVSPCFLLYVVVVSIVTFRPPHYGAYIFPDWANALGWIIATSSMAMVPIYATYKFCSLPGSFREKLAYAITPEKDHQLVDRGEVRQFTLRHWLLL

Legend:
[1] = species: Rattus norvegicus; experiment: Selectivity ratio of Ki for Sprague-Dawley rat brain SERT to Ki for Sprague-Dawley rat brain DAT
[2] = biological target: Sodium-dependent serotonin transporter (Rattus norvegicus, UniProt P31652); experiment: Displacement of [3H]citalopram from Sprague-Dawley rat brain SERT after 60 mins by liquid scintillation counting analysis; type: tissue-based
[3] = biological target: Sodium-dependent dopamine transporter (Rattus norvegicus, UniProt P23977); experiment: Displacement of [3H]WIN35,428 from Sprague-Dawley rat brain DAT after 120 mins by liquid scintillation counting analysis; type: tissue-based

SMILES: O=C(CSC(c1ccc(Br)cc1)c1ccc(Br)cc1)NCCCc1ccccc1
- Ratio Ki [1]: 249

SMILES: CCCCNCCSC(c1ccccc1)c1ccccc1
- Ratio Ki [1]: 18

SMILES: CCCCNC(=O)CSC(c1ccc(F)cc1)c1ccc(F)cc1
- Ki [2]: 25500 nM

SMILES: CNC(=O)CSC(c1ccc(Cl)cc1)c1ccc(Cl)cc1
- Ki [3]: 4130 nM

SMILES: CCCCNCC[S+]([O-])C(c1ccccc1)c1ccccc1 (stereo not drawn)
- Ratio Ki [1]: 41

SMILES: O=C(CSC(c1ccc(F)cc1)c1ccc(F)cc1)NCCCc1ccccc1
- Ki [3]: 442 nM

SMILES: O=C(CSC(c1ccc(Br)cc1)c1ccc(Br)cc1)NCCCCc1ccccc1
- Ki [3]: 405 nM

SMILES: Fc1ccc(C(SCCNCCCc2ccccc2)c2ccc(F)cc2)cc1
- Ki [3]: 114 nM
